## AlphaSeq binding of Ab-14 light chain variants to a spike HR2 peptide

Antigen: PDVDLGDISGINAS, a 14-residue peptide of the SARS-CoV-2 spike HR2 region.

The variants keep the heavy chain, the linker and the frameworks of Ab-14 (scFv order VH, the linker GGGGSGGGGSGGGGS, VL).
VH: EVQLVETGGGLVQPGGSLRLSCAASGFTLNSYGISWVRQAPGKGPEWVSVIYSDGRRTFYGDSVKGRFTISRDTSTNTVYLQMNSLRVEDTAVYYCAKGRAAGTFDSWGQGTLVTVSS
VL: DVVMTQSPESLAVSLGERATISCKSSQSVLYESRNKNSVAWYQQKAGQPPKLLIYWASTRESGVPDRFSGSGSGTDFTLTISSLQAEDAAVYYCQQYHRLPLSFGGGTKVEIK

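The starting antibody came from a phage panning campaign against this peptide. AAYL50 was designed without a model: most single CDR substitutions and a random sample of double and triple ones. The assay is AlphaSeq: two haploid yeast populations carry antibody and antigen on their surface. Mating (16 h, 30 °C) was followed by selection of diploids and sequencing of their barcodes. Each replicate has its own calibration line, from reference interactions of the BCL2 family. The assay was run in three technical replicates.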

Substitutions are numbered in sequence along the VL above, starting at 1 (not Kabat).
This list gathers variants with a substitution at E61 (VL, numbered from residue 1).
Each Kd is an estimate from the mating assay, the geometric mean of the replicates in which the pair was seen; lower is stronger.
"no signal" marks a missing value. The strain was present, yet no cells mated with the target were sequenced in any replicate, which points to weak or no binding.

The variant E61Q gave 120 nM (3 of 3 replicates). The variant N35M+E61C gave 81 nM (3 of 3 replicates). The variant R34G+W56M+E61K showed 12 nM (3 of 3 replicates). The variant N35T+R60F+E61S gave 9.6 µM (2 of 3 replicates). The variant S58D+E61M+Y97Q showed 12 µM (1 of 3 replicates). With E32S+E61A+P101D the result was 8.0 nM (3 of 3 replicates). For Q27W+E61Y+L102V, the assay gave 560 nM (3 of 3 replicates). The variant S28T+N37C+E61Y showed 270 nM (3 of 3 replicates). With K24P+S25K+E61C the result was no signal (0 of 3 replicates).

For E61Q+H98K+L100Y, the assay gave 45 µM (1 of 3 replicates). The variant L30C+E61T gave 190 nM (2 of 3 replicates). For N35V+E61W+P101Y, the assay gave 1.2 µM (3 of 3 replicates). For S28G+E61V+S62W, the assay gave 13 nM (3 of 3 replicates). The variant W56M+E61W+Q95D showed 830 nM (1 of 3 replicates). For L30E+A57N+E61F, the assay gave 6.9 µM (2 of 3 replicates). The variant A57H+E61N showed 63 µM (1 of 3 replicates). For E32T+S38C+E61N, the assay gave 170 µM (3 of 3 replicates). For S25Y+V29N+E61H, the assay gave 9.4 µM (2 of 3 replicates).

The variant S28V+E61Q+S62Y showed 1.4 µM (3 of 3 replicates). For Y31E+A40I+E61W, the assay gave no signal (0 of 3 replicates). The variant W56F+E61C+H98A showed 18 nM (3 of 3 replicates). The variant L30C+N37S+E61H showed 210 nM (3 of 3 replicates). The variant E61M+S62P+R99C showed 470 nM (3 of 3 replicates). The variant S33R+K36W+E61Y gave 47 nM (3 of 3 replicates). The variant S28A+S33H+E61V gave 110 nM (3 of 3 replicates). With R34T+E61W the result was 11 nM (3 of 3 replicates). The variant S38P+E61M gave 120 nM (3 of 3 replicates).

The variant V39F+A57L+E61R gave no signal (0 of 3 replicates). The variant V39H+E61H+S62Q gave 48 µM (2 of 3 replicates). The variant Q27A+S33C+E61N showed 24 µM (2 of 3 replicates). With K24S+S58V+E61S the result was 1.1 µM (3 of 3 replicates). For Y31A+T59V+E61Q, the assay gave 12 nM (3 of 3 replicates). With R34Y+E61F the result was 12 nM (3 of 3 replicates). The variant Q27Y+Y31L+E61G gave no signal (0 of 3 replicates). With K24Q+E61N+P101R the result was no signal (0 of 3 replicates). The variant E32N+E61G+P101L gave 1.8 µM (3 of 3 replicates).

With K36F+E61N the result was 30 nM (3 of 3 replicates). With K24M+E61N the result was 76 nM (3 of 3 replicates). The variant Q27M+V39G+E61A showed 6.5 µM (2 of 3 replicates). The variant K24G+Q27W+E61Y showed 210 nM (3 of 3 replicates). For E61P+L100Y, the assay gave 1.6 µM (3 of 3 replicates). The variant S26A+K36S+E61P gave 46 nM (3 of 3 replicates).

The 4 strongest on average among those seen in every replicate, once more:

| changes | Kd (apparent) | replicates with signal |
|---|---|---|
| E32S+E61A+P101D | 8.0 nM | 3 of 3 |
| R34T+E61W | 11 nM | 3 of 3 |
| R34G+W56M+E61K | 12 nM | 3 of 3 |
| R34Y+E61F | 12 nM | 3 of 3 |

As a blank, each scFv also met three strains without target: over library AAYL50, 18% of these pairings were detected, typically at 15 µM and seldom below 970 nM.
For reference, the parent read 4.4 nM as the reference entry and 48 nM as a member of this library.

Reference: Engelhart et al. 2022, doi:10.1038/s41597-022-01779-4. File: FLAb, binding data.